By UniProt entry, the sequences of proteins in these tests, tags left out. Where a name states a change or a piece, a line headed by the entry shows the natural chain unless it says otherwise.
UniProt Q12809: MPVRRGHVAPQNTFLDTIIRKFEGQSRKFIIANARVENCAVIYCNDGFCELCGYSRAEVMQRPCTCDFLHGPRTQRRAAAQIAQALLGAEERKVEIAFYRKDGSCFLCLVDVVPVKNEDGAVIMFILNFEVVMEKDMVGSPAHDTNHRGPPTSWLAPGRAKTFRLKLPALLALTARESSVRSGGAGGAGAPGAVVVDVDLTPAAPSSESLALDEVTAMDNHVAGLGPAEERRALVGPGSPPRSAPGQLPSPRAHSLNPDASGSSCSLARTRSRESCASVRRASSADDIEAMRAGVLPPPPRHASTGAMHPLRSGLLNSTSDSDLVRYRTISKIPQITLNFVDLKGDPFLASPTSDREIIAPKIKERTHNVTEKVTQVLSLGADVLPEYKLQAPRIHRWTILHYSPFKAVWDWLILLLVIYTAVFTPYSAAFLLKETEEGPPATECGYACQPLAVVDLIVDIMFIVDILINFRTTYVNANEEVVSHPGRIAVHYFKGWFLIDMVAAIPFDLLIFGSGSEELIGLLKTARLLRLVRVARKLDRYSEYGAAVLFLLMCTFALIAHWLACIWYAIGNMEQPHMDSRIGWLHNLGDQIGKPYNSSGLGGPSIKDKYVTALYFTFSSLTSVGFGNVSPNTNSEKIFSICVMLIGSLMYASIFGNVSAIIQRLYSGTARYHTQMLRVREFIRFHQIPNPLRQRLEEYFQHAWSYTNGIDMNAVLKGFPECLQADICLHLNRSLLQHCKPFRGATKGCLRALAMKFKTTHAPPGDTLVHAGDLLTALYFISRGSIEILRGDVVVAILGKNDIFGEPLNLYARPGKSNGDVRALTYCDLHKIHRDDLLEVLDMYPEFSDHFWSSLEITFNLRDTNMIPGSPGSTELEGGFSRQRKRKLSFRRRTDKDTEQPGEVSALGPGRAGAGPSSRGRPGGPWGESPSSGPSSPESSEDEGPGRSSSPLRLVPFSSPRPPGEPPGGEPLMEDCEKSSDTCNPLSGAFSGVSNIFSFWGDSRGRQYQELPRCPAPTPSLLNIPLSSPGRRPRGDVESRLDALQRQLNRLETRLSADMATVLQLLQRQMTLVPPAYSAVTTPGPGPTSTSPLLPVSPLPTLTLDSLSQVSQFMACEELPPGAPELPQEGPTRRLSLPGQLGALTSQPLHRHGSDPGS

In ChEMBL document CHEMBL1671772, “Predicting hERG activities of compounds from their 3D structures: development and evaluation of a global descriptors based QSAR model” (Eur J Med Chem, 2011):

Columns and labels:
[1] = biological target: T1, Voltage-gated inwardly rectifying potassium channel KCNH2 (Homo sapiens, UniProt Q12809)
[2] = biological target: T1, Voltage-gated inwardly rectifying potassium channel KCNH2; remark: listed apart in the source

Row | Structure (SMILES) | pIC50 [1] | IC50 [2]
1 | CCC(CC)c1cn(-c2ccc(F)cc2)c2ccc(Cl)cc12 | 2.83 | –
2 | c1ccc(-c2[nH]c3ccccc3c2C2CCCNC2)cc1 (stereo not given) | – | 4900 nM
3 | CC(C)COCC(CN(Cc1ccccc1)c1ccccc1)N1CCCC1 (stereo not given) [BEPRIDIL] | – | 22.9 nM
4 | OC(c1cc(C(F)(F)F)nc2c(C(F)(F)F)cccc12)C1CCCCN1 (stereo not given) [MEFLOQUINE] | – | 5500 nM
5 | CN1CCCCC1CCN1c2ccccc2Sc2ccc([S+](C)[O-])cc21 (stereo not given) [MESORIDAZINE] | – | 316 nM
